These results are taken from paper PMC8123931 (Nature chemical biology, 2020).

This assay has as its system RTK bait (MET, FGFR4, AXL, ALK, EGFR).

As for `C[C@@H](Oc1cc(-c2cnn(C3CCNCC3)c2)cnc1N)c1c(Cl)ccc(F)c1Cl` [crizotinib], the bait expression entry is listed as “some reduction in bait expression”.
